Laboratory results from published antibiotic growth screens (doi:10.1038/s41589-023-01349-8).
This is one part of the list.

Test system: A. baumannii ATCC 17978
Experiment: relative growth (fraction of control); higher = less inhibition
Conditions: 50 µM

SMILES | relative growth
O=C(O)c1c(O)c2c([nH]c1=O)CCCC2 | 0.152
CS(=O)(=O)N[C@@H](C(=O)O)c1ccccc1 | 1.12
CC1(C)C(=O)NCCN1C(=O)c1ccco1 | 0.94
O=C(CCc1ccc(O)cc1)c1c(O)cc(O)cc1O | 1.16
CCCN[C@H]1CCc2nc(N)sc2C1.Cl.Cl | 0.982
Cn1nnnc1SCC(=O)Nc1ncccn1 | 1.06
COc1ccc(/C=C/CN2CCC(C(=O)N[C@@H](c3ccc(F)cc3)c3ccc4ccccc4n3)CC2)cc1 | 0.692
CO[C@H]1CC(O[C@@H]2/C(C)=C/C[C@@H]3C[C@@H](C[C@]4(CC[C@H](C)[C@@H](C5CCCCC5)O4)O3)OC(=O)[C@@H]3C=C(C)/C(=N/O)[C@H]4OC/C(=C\C=C\[C@@H]2C)[C@]43O)O[C@@H](C)C1O (stereo not given in full) | 1.01
O=c1cc(-c2ccc(O)cc2)oc2ccc(O)cc12 | 1.04
CC(=O)NS(=O)(=O)c1ccc(NC(=O)c2ccccc2C(=O)O)cc1 | 0.969
CC[C@@H]1OC(=O)C[C@@H](O)[C@H](C)[C@@H](O[C@@H]2O[C@H](C)[C@@H](O)[C@H](N(C)C)[C@H]2O)[C@@H](CCN2C[C@H](C)C[C@H](C)C2)C[C@@H](C)C(=O)/C=C/C(C)=C\[C@@H]1CO[C@@H]1O[C@H](C)[C@@H](O)[C@@H](OC)[C@H]1OC | 0.674
COCCN[C@H]1CS(=O)(=O)C[C@@H]1O | 1.08
O=C(C[C@@H]1CC[C@@H]2[C@H](COC[C@@H](O)CN2C(=O)Nc2cccc(Cl)c2)O1)NCc1ccccc1F | 1.01
Cc1c[nH]c2ccccc12 | 1.15
c1ccc(CNc2ccc3c(ccc4c5ccccc5[nH]c34)n2)cc1 | 0.959
CC(S)C(=O)NCC(=O)O (stereo not given) | 1.02
O=C(c1ccccc1F)N1CCNCC1 | 1.04
CC[N+](CC)(CC(=O)Nc1c(C)cccc1C)Cc1ccccc1.O=C([O-])c1ccccc1 | 1.11
Cn1cnc(CCNC(=O)C[C@@H]2CC[C@@H]3[C@H](COC[C@H](O)CN3C(=O)C3CC3)O2)c1 | 0.8
COc1ccc(NC(=O)N[C@H]2CC[C@H](CCNC(=O)CN3CCOCC3)O[C@@H]2CO)cc1 | 0.959

SMILES | relative growth
CNC[C@H](O)c1ccc(O)c(O)c1 | 0.936
Fc1ccccc1[C@H]1Nc2ccc3ccccc3c2[C@H]2C=CC[C@@H]21 | 1.21
CC(=O)OC[C@H]1O[C@@H](n2cc(C)c(=O)[nH]c2=O)C[C@@H]1OC(C)=O | 1.02
C[C@@H]1CN([C@@H](C)CO)S(=O)(=O)c2ccc(-c3ccc(F)cc3)cc2O[C@H]1CN(C)C(=O)C1CCOCC1 | 0.885
Cc1ccc(S(=O)(=O)N[C@@H]2CC[C@@H](CC(=O)N3CCC(Cc4ccccc4)CC3)O[C@H]2CO)cc1 | 0.772
CC(=O)N[C@H]1[C@H](Oc2nc3cc(C)ccc3o2)O[C@H](CO)[C@@H](O)[C@@H]1O | 1.08
C=c1[nH]/c(=C\c2ccc(F)cc2)c(=O)o1 | 0.909
COC(=O)C1=CO[C@@H](O[C@@H]2O[C@H](CO)[C@@H](O)[C@H](O)[C@H]2O)[C@@H]2[C@@H](CO)C=C[C@H]12 | 0.927
O=S(=O)(Nn1cnnc1)c1ccccc1 | 0.935
CCOCCCNc1nc2c([nH]1)c(=O)n(C)c(=O)n2C | 1.02
O=C(C[C@H]1C=C[C@H](NS(=O)(=O)c2ccc(F)cc2)[C@@H](CO)O1)NCCN1CCCCC1 | 1.08
C=c1[nH]/c(=C/c2cccnc2)c(=O)o1 | 0.947
C[C@@H]1[C@@H]([Si](C)(C)F)[C@H](CCn2cc([C@H](O)c3ccccc3)nn2)O[C@@]12C(=O)N(c1ccccc1)c1ccccc12 | 0.949
C=CC[C@@H](CC(=O)N(CCO)Cc1ccccc1)C(=O)N[C@H](COC(=O)[C@@H](CC=C)Cc1ccc(F)cc1)c1ccccc1 | 0.948
CC(=O)O[C@H]1C[C@@H](O)C(C)(C)C2C[C@@H](OC(C)=O)[C@]3(C)C(CC[C@@]4(C)[C@H](c5ccoc5)OC(=O)C5OC543)[C@]21C (stereo not given in full) | 1
Nc1ccn([C@H]2CC[C@@H](CO)O2)c(=O)n1 | 0.934
Oc1cc(O)c2c(c1)O[C@H](c1cc(O)c(O)c(O)c1)[C@H](O)C2 | 1.24
CN1C(=N)NC(=O)/C1=C/c1cccnc1 | 0.819
CN(C(=O)C(Cl)Cl)c1ccc(OC(=O)c2ccco2)cc1 | 0.888
COc1cc(/C=C/C(N)=O)cc(OC)c1OC | 0.936

SMILES | relative growth
Cn1nnnc1-c1ccco1 | 0.87
CC(CCC(=O)O)C1CC[C@H]2C3[C@H](O)C[C@@H]4C[C@H](O)CCC4(C)[C@H]3C[C@H](O)C12C (stereo not given in full) | 1.2
C=CCNC(N)=S | 0.863
CC(=O)OC[C@H](N)C(=O)O | 0.848
O=C(O)CCCNc1n[nH]c(=O)[nH]c1=O | 1
Nc1nc(=O)c2ncn(COC(CO)CO)c2[nH]1 | 0.968
C[C@H](O)C#Cc1ccc2c(c1)O[C@H](CN(C)C(=O)C1CCCCC1)[C@H](C)CN([C@H](C)CO)S2(=O)=O | 1.01
CCCNC(=O)N1C[C@H](C)[C@@H](OC)CN(C)C(=O)c2cc(NS(=O)(=O)CC(F)(F)F)ccc2OC[C@H]1C | 0.957
CC[C@@H](C)[C@H]1NC(=O)NC1=O | 0.851
Cn1cnc(S(=O)(=O)N[C@@H]2C=C[C@@H](CC(=O)Nc3ccccc3)O[C@@H]2CO)c1 | 1.03
CC(C)(C#N)c1cc(Cn2cncn2)cc(C(C)(C)C#N)c1 | 0.919
CO[C@@H]1[C@H](N(C)C(=O)c2ccccc2)C[C@H]2O[C@]1(C)n1c3ccccc3c3c4c(c5c6ccccc6n2c5c31)C(=O)NC4 | 1.01
C=CC(C1=CC(=O)C(OC)=CC1=O)c1ccc(OC)cc1 (stereo not given) | 0.954
O=C(C[C@H]1CC[C@H]2[C@@H](COC[C@@H](O)CN2Cc2ccccc2F)O1)N[C@@H]1CCN(Cc2ccccc2)C1 | 0.786
O=C(C[C@@H]1CC=CCCC(=O)OC[C@H](Cc2c[nH]c3ccccc23)NC1=O)N[C@H](CO)Cc1ccccc1 | 0.871
Cc1ccc(C(=O)Oc2ccc(/C=N/c3cccs3)cc2)cc1 | 0.922
Oc1c(I)cc(Cl)c2cccnc12 | 0.671
CCCN1CCCc2cc(CCN)ccc21 | 0.932
COc1ccccc1OCC(O)CO (stereo not given) | 1.09
C[C@H](CO)N1C[C@H](C)[C@@H](CN(C)C(=O)Cc2ccncc2)Oc2cc(C#CC3(O)CCCC3)ccc2S1(=O)=O | 0.971
